Data as given in patent US6461856B2 (priority 1999, dated 2002).
This is a selection: effects in other tests are not listed, and their absence says nothing.

Test system: F420-dependent dehydrogenase (ORF 9)
Conditions: NADPH 0.075 mM, F420 0.0025 mM, substrate 0.025 mM, ORF 8 extract as reagent; FIG. 8A/8B

O=[N+]([O-])c1cc([N+](=O)[O-])c(O)c([N+](=O)[O-])c1
reduction of the substrate to its Meisenheimer complex upon addition of ORF 9 extract: reduces
